Like-named read-outs stand apart in the source and are kept apart here.
How the values were obtained:
[1] = test system: T-lineage acute lymphoblastic leukemia (ALL); conditions: peripheral blasts and bone marrow infiltrates in T-lineage ALL, n=7
[2] = test system: standard and high-risk ALL; conditions: for Therapeutic Component: Percentage effective (no evidence of a disease manifestation): greater than 12 months treatment, AMT 4 mg/m^2/wk high risk ALL (n=20), MTX 100 mg/m^2/wk standard risk ALL (n=20)

CN(Cc1cnc2nc(N)nc(N)c2n1)c1ccc(C(=O)N[C@@H](CCC(=O)O)C(=O)O)cc1 [MTX, methotrexate, reference compound]
Therapeutic Component: Antifolate dose [1]: >5000 mg/m^2/wk:
Therapeutic Component: Percentage effective (complete remission or stable disease) ([1]; AMT 4 mg/m^2/wk, MTX >5000 mg/m^2/wk in the same patients): 0% effective in
Therapeutic Component: Antifolate dose ([1]; listed as methotrexate): > 5,000 mg/m^2/wk
Therapeutic Component: Antifolate dose ([2]; AMT high risk ALL (n=20), MTX standard risk ALL (n=20), Table V): 100 mg/m^2/wk:
Therapeutic Component: Antifolate dose with same efficacy as MTX at 100 mg/m^2/wk ([2]; AMT high risk ALL (n=20), MTX standard risk ALL (n=20), Table VI): 100 mg/m^2/wk
Therapeutic Component: Percentage effective (no evidence of a disease manifestation) [2]: 100% effective at
Therapeutic Component: Percentage effective (no evidence of a disease manifestation) ([2]; listed as methotrexate): 100%

Reference: US7612071B2, “Compositions and methods employing aminopterin” (Syntrix Biosystems, Inc., priority 2004, dated 2009)
